Here are results for 1 molecule from ChEMBL document CHEMBL1126935, “N-acyl-L-tryptophan benzyl esters: potent substance P receptor antagonists” (J Med Chem, 1993).

Chains of the proteins cited; added tags and fusions are not shown.
UniProt P25103, whole entry: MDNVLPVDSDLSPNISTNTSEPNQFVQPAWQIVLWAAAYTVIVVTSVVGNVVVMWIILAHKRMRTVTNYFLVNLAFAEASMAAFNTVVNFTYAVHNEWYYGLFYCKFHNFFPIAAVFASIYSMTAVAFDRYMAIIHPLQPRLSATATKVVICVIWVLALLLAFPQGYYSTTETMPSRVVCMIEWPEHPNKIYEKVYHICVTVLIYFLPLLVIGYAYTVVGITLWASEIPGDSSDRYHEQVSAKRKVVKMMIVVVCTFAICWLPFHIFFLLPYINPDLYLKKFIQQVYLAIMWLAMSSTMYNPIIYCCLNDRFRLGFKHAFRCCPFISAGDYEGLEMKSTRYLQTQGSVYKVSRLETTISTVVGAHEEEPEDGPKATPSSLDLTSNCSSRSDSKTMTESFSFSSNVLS

pIC50: −log10 of the molar value.

The target in the test is Substance-P receptor (Homo sapiens, UniProt P25103). As to the kind of experiment: Tested against cloned human NK1 receptor by displacement of 125 I -labeled substance P expressed in CHO cells. The format is cell-based.

Take `Cc1cc(C)cc(COC(=O)[C@H](Cc2c[nH]c3ccccc23)NC(=O)OC(C)(C)C)c1`: the negative logarithm of the IC50 (pIC50) (commonly the negative decadic logarithm of the IC50, by convention in mol/L) is 6.88.
